From PubChem BioAssay AID602252 (Broad Institute, 2012) come the findings set out here.

Molecules are shown by their SMILES. The list shows a part of the results, in another mix than the full data. Some salts or complexes appear as unconnected parts, following the source record. The source made the active and inactive calls.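 Rule for the calls: active = mean inhibition of at least 30% with at least half of replicates also reaching 30%; inconclusive = no clear call, values can overlap the other calls; inactive = the rest.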

This test deals with Golgi-associated PDZ and coiled-coil motif-containing protein (Homo sapiens) (UniProt Q9HD26). The test is described as follows: untagged CAL PDZ binding inhibitors, primary screen, biochemical, fluorescence polarization, HTS (AID 602252).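 Note: 0% = DMSO neutral control and 100% = excess unlabeled competitor peptide PRC23.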 The following applies: purified CAL PDZ, TMR-peptide fluorescence polarization, 1 h; at 24.9 µM; active compounds read high. In general terms: Fluorescence polarisation rises when a labelled molecule tumbles more slowly, as on binding a larger partner.
For `Cc1c(NP(C)(=O)Oc2ccc(C(C)C)cc2)c(=O)n(-c2ccccc2)n1C` (centres undefined), the inhibition was inactive: -0.83%. Then `O=[N+]([O-])c1cc([N+](=O)[O-])c(Nc2ccccn2)c([N+](=O)[O-])c1`, with inactive: 2.92%. With `CCc1ccc(OP(C)(=O)O)cc1`, the inhibition was inactive: -0.336%. The result for `CP(=O)(Nc1ccccn1)Oc1ccccc1` (centres undefined) reads inactive: 7.64%; that for `COc1ccccc1OP(C)(=O)Nc1ccc(C)cc1C` (centres undefined), inactive: -1.39%; that for `COc1ccccc1OP(C)(=O)Nc1ccc(Br)cc1` (centres undefined), active: 65.5%. Then `CN(C)CCOC(=O)C(O)(c1ccccc1)C1CCCC1` (centres undefined), with inactive: 2.39%; and `COc1ccc(OP(C)(=O)Nc2ccccn2)cc1` (centres undefined), with inactive: -2.95%.

As for `CP(=O)(Nc1ccc(Cl)cc1Cl)Oc1ccccc1` (centres undefined), the inhibition is inactive: -2.49%. Then `CCCCCCCCCCCCCCCC1C[N+](C)(C)CCOP(C)(=O)O1` (centres undefined), with inactive: -6.49%; and `CP(=O)(OCCOc1ccccc1)OCCOc1ccccc1`, with inactive: -5.37%.

For the molecule `O=C1C(O)=C([N+](=O)[O-])C(=O)C(O)=C1[N+](=O)[O-]`, the inhibition was inactive: 7.52%. Then `Cc1cc(C)cc(OP(C)(=O)Nc2cccc(C(F)(F)F)c2)c1` (centres undefined), with inactive: -3.18%; and `COc1ccc(OP(C)(=O)Nc2ccccc2Br)cc1` (centres undefined), with inactive: 1.07%.

In the case of `COc1ccccc1OP(C)(=O)Nc1ccc(C)c(C)c1` (centres undefined), the inhibition is inactive: -4.8%. As to `CP(=O)(OC12CC3CC(CC(C3)C1)C2)OC12CC3CC(CC(C3)C1)C2`, the inhibition was inactive: -0.212%.

As for `CCOC(=O)c1ccc(NP(C)(=O)Oc2ccc(Cl)cc2)cc1` (centres undefined), the inhibition was inactive: -0.848%. Then `CP(=O)(Nc1ccc(Cl)cc1)Oc1ccc(F)cc1` (centres undefined), with inactive: -1.39%; and `COc1ccccc1OP(C)(=O)Nc1ccccc1Br` (centres undefined), with inactive: 21.8%. Then `CC(C)(C)c1ccc(OP(C)(=O)O)cc1`, with inactive: 20.2%; and `CN(C)C(=O)c1c([N+](=O)[O-])cc([N+](=O)[O-])cc1[N+](=O)[O-]`, with inactive: -1.69%. Then `CCN(CC)CC(O)COC(=O)C(O)(c1ccccc1)C1CCCCC1` (centres undefined), with inactive: 4.2%. On to `COc1ccc(OP(C)(=O)Nc2ccc(Br)cc2)cc1` (centres undefined), for which the inhibition was inactive: -1.2%. For `CP(=O)(Oc1ccccc1)N1CCOC1=O` (centres undefined), the inhibition was inactive: -4.52%. With `CCc1ccc(OP(C)(=O)Nc2cccnc2)cc1` (centres undefined), the inhibition is inactive: -3.2%. Then `COc1ccccc1OP(C)(=O)Nc1c(C)n(C)n(-c2ccccc2)c1=O` (centres undefined), with inactive: -1.89%; and `O=C(OCCCN1CCCC1)C(O)(c1ccccc1)C1CCCCC1` (centres undefined), with inactive: -2.14%. The result for `CP(=O)(Nc1ccc2c(c1)OCCO2)Oc1ccccc1` (centres undefined) reads inactive: -9.06%; that for `Cc1ccccc1NP(C)(=O)Nc1ccccc1C`, inactive: -7.16%. Then `CP(=O)(Nc1ccc(SC(F)(F)F)cc1)Oc1ccc(F)cc1` (centres undefined), with inactive: -6.33%. With `CCOP(C)(=S)SCC(=O)NC(C)(CC)C(=O)O` (centres undefined), the inhibition is inactive: -2.64%.

With `Cc1cc(-c2cccc3ccccc23)c(C)cn1.O=[N+]([O-])c1cc([N+](=O)[O-])c(O)c([N+](=O)[O-])c1`, the inhibition was inactive: -4.26%.

On to `O=[N+]([O-])c1cc([N+](=O)[O-])c(NCC2CCS(=O)(=O)C2)c([N+](=O)[O-])c1` (centres undefined), for which the inhibition was inactive: -2.55%. Then `O=[N+]([O-])c1ccc(OP2(=O)COCCO2)cc1` (centres undefined), with inactive: -1.31%; and `Cc1c(C(c2ccc3c(c2)OCO3)c2c(C)n(C)n(-c3ccccc3)c2=O)c(=O)n(-c2ccccc2)n1C.O=[N+]([O-])c1cc([N+](=O)[O-])c(O)c([N+](=O)[O-])c1`, with inactive: -3.17%; and `COc1ccc(OP(C)(=O)Nc2cccc(Br)c2)cc1` (centres undefined), with inactive: 2.3%. `COc1ccc(NP(C)(=O)Oc2ccccc2OC)cc1` (centres undefined): the inhibition is inactive: -0.942%. Then `CN(C)CCOC(=O)C(O)(c1ccccc1)C1CCCCC1` (centres undefined), with inactive: -3.52%; and `CCN(CC)CCCOC(=O)C(O)(c1ccccc1)C1CCCCC1` (centres undefined), with inactive: -3.47%; and `Cc1c([N+](=O)[O-])cc([N+](=O)[O-])c(Br)c1[N+](=O)[O-]`, with inactive: 0.619%. Then `O=[N+]([O-])c1cc([N+](=O)[O-])c(OC2CCCCC2O)c([N+](=O)[O-])c1` (centres undefined), with inactive: -0.869%; and `CCCCCOc1ccc(NP(C)(=O)Oc2ccc(Cl)cc2Cl)cc1` (centres undefined), with inactive: -1.29%. Then `CP(=O)(Nc1ccccc1)Oc1ccc(F)cc1` (centres undefined), with inactive: -2.63%; and `O=C(OCCN1CCN(CCOCc2ccccc2)CC1)C(O)(c1ccccc1)c1ccccc1`, with inactive: -0.486%. `O=C(OC1CN2CCC1CC2)c1ccc([N+](=O)[O-])cc1` (centres undefined): the inhibition is inactive: -0.749%.

On to `COc1ccc2c(c1O)-c1c(O)c(OC)cc3c1[C@H](C2)[N+](C)(C)CC3.O=[N+]([O-])c1cc([N+](=O)[O-])c([O-])c([N+](=O)[O-])c1[O-]`, for which the inhibition is inactive: -0.881%. For `CC(C)c1ccc(OP(C)(=O)Nc2ccc(SC(F)(F)F)cc2)cc1` (centres undefined), the inhibition is inactive: -2.1%. Then `CP(=O)(Nc1ccccc1F)Oc1ccccc1` (centres undefined), with inactive: -3.69%; and `Cc1cc(C)cc(OP(C)(=O)Nc2ccccn2)c1` (centres undefined), with inactive: 2.71%. The result for `CP(=O)(Nc1cccc(Br)c1)Oc1ccccc1` (centres undefined) reads inactive: -9.68%; that for `Cc1ccc(C)c(NP(C)(=O)Oc2ccccc2)c1` (centres undefined), inactive: -0.738%. Then `COc1ccccc1OP(C)(=O)Nc1cccc(Br)c1` (centres undefined), with inactive: -0.382%; and `Cc1cc(C)cc(OP(C)(=O)Nc2ccc(C)cc2C)c1` (centres undefined), with inactive: -3.93%; and `CCOC(=O)c1ccc(NP(C)(=O)Oc2cc(C)cc(C)c2)cc1` (centres undefined), with inactive: 0.786%. With `CC1=NCCc2c1[nH]c1ccccc21.O=[N+]([O-])c1cc([N+](=O)[O-])c(O)c([N+](=O)[O-])c1`, the inhibition was inactive: -2.61%. Then `O=C(O)c1cccc(Nc2c([N+](=O)[O-])cc([N+](=O)[O-])cc2[N+](=O)[O-])c1`, with inactive: -2%; and `CN1CCCCC1COC(=O)C1(O)c2ccccc2CCc2ccccc21` (centres undefined), with inactive: -2.04%; and `COc1ccccc1OP(C)(=O)Nc1c(C)cccc1C` (centres undefined), with inactive: 3.34%. The result for `CCCOc1ccc(NP(C)(=O)Oc2ccc(Cl)cc2)cc1` (centres undefined) reads inactive: -6.3%.

Usually inhibition stands for the relative decrease from the control value, in per cent.
